{
  "source": "patent US20240201169A1",
  "about": "“METHODS OF THREE-DIMENSIONAL TUMOR SPHEROID MICROARRAY FOR HIGH-THROUGHPUT, HIGH-CONTENT IMMUNE CELL-MEDIATED CYTOTOXICITY” (RENSSELAER POLYTECHNIC INSTITUTE, priority 2021, published 2024)",
  "test_system": "MCF7 spheroids",
  "format": "cell-based",
  "settings": "presence of Trastuzumab 2.5 μg/mL and NK92-CD16 (5:1), paclitaxel dose range, 24 h",
  "procedure": "High-content imaging of 3D tumor spheroid micropillar array for effector cell-mediated cytotoxicity including NK ADCC/drug combination. Uniform-sized 3D spheroids in the 330-micropillar array were used to perform high-throughput ADCC on three different cancer cell lines; MiaPaCa-2, MCF7 and MDA-MB-231, the latter a triple negative breast cancer cell line, in the presence and absence of two chemotherapeutic drugs, doxorubicin and paclitaxel. The ADCC screen was performed by spotting 250 nL onto polydopamine-coated micropillars including 2500 target cancer cells per spot. The cells were cultured for 3 days and then treated with NK92-CD16 cells. […] As a control, one block of spots was reserved for exposure of target cells with both antibody and the drugs but without NK92-CD16 cells. The micropillar/microwell sandwich platform was incubated for 24 h upside-down to allow for target cell killing on culture day 3. […]\nSimilarly, for the dose response experiments with paclitaxel, where the E:T ratio was fixed at 5:1, 25 different conditions including a dead cell control were evaluated, as shown in Table 2.\nUnconjugated anti-HER2 antibody was used for experiments on 330 micropillar/microwell chips. […] The chips were subsequently washed in DPBS and imaged using an ASFA™ Cell Scanner (MBD Korea Co., South Korea) and quantitatively analyzed using cell analyzer software within the imaging system. […]",
  "data": [
    {"substance": "Trastuzumab", "values": [
      {"measurement": "killing of tumor spheroids", "result": "augmented"}
    ]}
  ]
}
